Target: Substance-P receptor (Homo sapiens, UniProt P25103)
Experiment: Inhibition of binding of [125I]SP to the CHO cell line expressing human Tachykinin receptor 1

By UniProt entry, the sequences of proteins in these tests, tags left out.
UniProt P25103, whole entry, looked up: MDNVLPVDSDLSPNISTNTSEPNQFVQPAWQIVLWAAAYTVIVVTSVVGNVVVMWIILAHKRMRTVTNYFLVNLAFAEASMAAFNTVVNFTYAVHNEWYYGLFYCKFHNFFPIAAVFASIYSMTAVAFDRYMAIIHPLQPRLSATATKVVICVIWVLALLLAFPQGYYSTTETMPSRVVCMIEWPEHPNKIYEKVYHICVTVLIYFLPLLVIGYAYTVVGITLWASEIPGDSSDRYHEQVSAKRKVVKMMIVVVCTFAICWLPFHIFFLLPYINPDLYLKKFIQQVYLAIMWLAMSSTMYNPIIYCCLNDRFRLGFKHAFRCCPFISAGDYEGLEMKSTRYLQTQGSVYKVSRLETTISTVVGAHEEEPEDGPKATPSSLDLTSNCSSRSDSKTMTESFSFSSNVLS

## O=C(O[C@H]1C2CCN(CC2)[C@H]1C(c1ccccc1)c1ccccc1)c1ccccc1
  IC50: > 1000 nM

— BindingDB's records for 7490729
